In ChEMBL document CHEMBL1153225 (Bioorg Med Chem Lett, 2010) one finds IC50 data, which are given here for nine compounds.

The subject of this assay is RAW264.7. Put plainly: Antiresorptive activity in mouse RAW264.7 cells assessed as inhibition of tartrate-resistant acid phosphatase activity.
Take `CCCCN/C(Cc1ccccc1)=N\P(=O)(Oc1ccccc1)Oc1ccccc1`: the IC50 is 4.8 µM.
Next, `CCCCC/C(=N/P(=O)(Oc1ccccc1)Oc1ccccc1)N(C(C)C)C(C)C`: 7.3 µM; `CC(C)N(/C(CC1CCCCC1)=N\P(=O)(Oc1ccccc1)Oc1ccccc1)C(C)C`: 2.4 µM.
With `COc1ccc(C/C(=N/P(=O)(Oc2ccccc2)Oc2ccccc2)N(C(C)C)C(C)C)cc1`, the IC50 came out at 21.2 µM.
In the case of `O=P(/N=C(/Cc1ccccc1)N1CCOCC1)(Oc1ccccc1)Oc1ccccc1`, the IC50 amounted to 10.6 µM.
Next, `O=P(/N=C(/Cc1ccccc1)N1CCCCC1)(Oc1ccccc1)Oc1ccccc1`: 4.2 µM; `CC(C)N(/C(Cc1ccc([N+](=O)[O-])cc1)=N\P(=O)(Oc1ccccc1)Oc1ccccc1)C(C)C`: 2.6 µM; `CC(C)N(/C(Cc1ccccc1)=N\P(=O)(Oc1ccccc1)Oc1ccccc1)C(C)C`: 2 µM.
Regarding `CCCN/C(Cc1ccccc1)=N\P(=O)(Oc1ccccc1)Oc1ccccc1`, the IC50 amounted to 6.5 µM.

The IC50 is the point on the concentration scale where inhibition reaches its midpoint.
